In general, EC50 refers to the concentration at which the effect is half-maximal. Read a low EC50 as a more potent agent. What is called Kd is the equilibrium constant for the complex coming apart.

Test [1] concerns the target PDL1-ECD-His protein (UniProt Q9NZQ7). The test is described as follows: ELISA, PDL1-ECD-His coated, HRP anti-human Fc detection. (An ELISA detects its analyte on a solid surface through an enzyme-linked reagent.)
Test [2] shares this target. Put plainly: SPR, Biacore 8K, antibody captured on Protein A, PDL1-His as analyte. For orientation: SPR reads the build-up and loss of mass on a sensor chip optically.
The target of test [3] is PD-L1 on PD-L1 aAPC/CHO-K1 cells (UniProt Q9NZQ7). Put plainly: cell-based or functional assay.
The target of a further test is PD-L1 on N87-PDL1 cells (UniProt Q9NZQ7). The test is described as follows: flow cytometry (FACS) on N87-PDL1 cells. A general note: A flow cytometer gives signals particle by particle.
In another test the target is PDL1-ECD-hFc protein (UniProt Q9NZQ7). Put plainly: bispecific ELISA for simultaneous binding of PD-L1 and EGFR; PDL1-ECD-hFc coated.

Take “anti-PDL1×EGFR BsAb1 (bispecific antibody)”: the concentration for a half-maximal effect (EC50) with PDL1-ECD-His protein [1] amounted to 0.11 nM. For the same substance, in the test with PDL1-ECD-His protein [2], the Kd was determined as 0.965 nM. This substance yielded an IC50, PD-1/PD-L1 Blockade Bioassay (luminescence) in test [3] of 1.06 nM.
On to “anti-PDL1×EGFR BsAb1 (bispecific antibody; other documents disagree on this pair)”, for which the concentration for a half-maximal effect (EC50) with PD-L1 on N87-PDL1 cells was 0.16 nM; with PDL1-ECD-hFc protein it was 0.66 nM.
On to “anti-PDL1×EGFR BsAb2 (bispecific antibody)”, for which the EC50 with PDL1-ECD-His protein [1] was 0.11 nM. Also, the IC50, PD-1/PD-L1 Blockade Bioassay (luminescence) in test [3] was 1.21 nM.
Take “anti-PDL1×EGFR BsAb2 (bispecific antibody; other documents disagree on this pair)”: the values for the EC50 with PD-L1 on N87-PDL1 cells and in the test with PDL1-ECD-hFc protein were 0.22 nM and 0.63 nM, respectively.
